Laboratory results: ChEMBL document CHEMBL5380833, “Discovery of Potent and Highly Selective Interleukin-2-Inducible T-Cell Kinase Degraders with In Vivo Activity” (J Med Chem, 2023)

The chains behind the UniProt entries cited, without tags or fusion partners. Where a name states a change or a piece, a line headed by the entry shows the natural chain unless it says otherwise.
UniProt Q08881: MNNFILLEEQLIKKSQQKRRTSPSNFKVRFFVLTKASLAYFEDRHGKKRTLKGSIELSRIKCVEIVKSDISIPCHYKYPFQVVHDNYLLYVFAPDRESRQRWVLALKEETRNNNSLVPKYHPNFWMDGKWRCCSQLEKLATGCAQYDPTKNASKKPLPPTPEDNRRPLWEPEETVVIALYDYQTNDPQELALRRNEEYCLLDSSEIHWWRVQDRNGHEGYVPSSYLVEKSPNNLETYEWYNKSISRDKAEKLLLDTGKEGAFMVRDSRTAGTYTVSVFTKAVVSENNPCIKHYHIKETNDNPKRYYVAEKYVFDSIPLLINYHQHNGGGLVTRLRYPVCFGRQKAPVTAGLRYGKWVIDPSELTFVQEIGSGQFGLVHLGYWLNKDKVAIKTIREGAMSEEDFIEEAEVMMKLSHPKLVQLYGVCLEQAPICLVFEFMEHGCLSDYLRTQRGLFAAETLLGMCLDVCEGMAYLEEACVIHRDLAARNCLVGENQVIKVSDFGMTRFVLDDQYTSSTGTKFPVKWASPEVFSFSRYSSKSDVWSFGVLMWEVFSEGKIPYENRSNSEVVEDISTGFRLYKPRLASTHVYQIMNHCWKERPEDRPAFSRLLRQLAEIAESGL
UniProt Q96SW2: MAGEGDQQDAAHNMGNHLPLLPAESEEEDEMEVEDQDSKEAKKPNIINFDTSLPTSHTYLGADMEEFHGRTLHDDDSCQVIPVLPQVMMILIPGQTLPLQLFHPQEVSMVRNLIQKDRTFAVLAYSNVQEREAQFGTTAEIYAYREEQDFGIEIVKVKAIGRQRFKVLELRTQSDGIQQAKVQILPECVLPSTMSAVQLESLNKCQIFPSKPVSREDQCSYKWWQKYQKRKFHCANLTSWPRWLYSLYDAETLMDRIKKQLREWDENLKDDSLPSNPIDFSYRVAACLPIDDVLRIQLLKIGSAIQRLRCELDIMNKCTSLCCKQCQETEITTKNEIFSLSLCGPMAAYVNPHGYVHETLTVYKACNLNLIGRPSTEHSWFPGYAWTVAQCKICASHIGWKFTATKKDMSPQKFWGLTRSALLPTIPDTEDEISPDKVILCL

Target: Protein cereblon/Tyrosine-protein kinase ITK/TSK (Homo sapiens, UniProt Q08881+Q96SW2)
Assay: PROTAC activity at CRBN/ITK in human Jurkat cells assessed as induction of ITK degradation at 0.01 to 10 uM measured after 16 hrs by Western blot analysis
Assay type: cell-based
Details: dose 0.01-10 µM

Activity: inactive
Compound: CN(CCCCCC(=O)Nc1ccc2c(c1)C(=O)N(C1CCC(=O)N(C)C1=O)C2=O)CC[C@@H](c1ccccc1)n1cc(NC(=O)c2n[nH]c3c2CCC(C)(C)C3)cn1 (stereo partly specified)

The source made the active and inactive calls. The calls are words filed in the database; no cut-off is given here.
